Measurements reported in patent US20240325397A1, “USE OF COMBINATION THERAPY FOR TREATING CANCER” (Recurium IP Holdings, LLC, priority 2021, published 2024).

Assays:
[1] = system: HER2+ JIMT-1 breast cancer cell line; assay: HER2+ JIMT-1 breast cancer xenograft, Study 1-Part 2 (high initial tumor burden); format: in vivo, NOD/SCID mice; conditions: Day 14 of second part; tumors approximately 1000 mm^3 at start; Compound (A) 60 mg/kg p.o. qd; trastuzumab 10 mg/kg i.p. qw; vs. vehicle
From the text: Next, mice in the two vehicle groups were randomized on Day 29 to be treated with either vehicle, Compound (A) alone, trastuzumab alone or the combination of Compound (A) with trastuzumab according to Table 4. At this point, tumors had reached approximately 1000 mm^3 and therefore, treatment of these mice occurred at high initial tumor burden.
Table 5 summarizes the results (tumor growth inhibition) of the experiment depicted in FIG. 9. ^aTGI=Tumor growth inhibition on Day 14. […] Table 6 summarizes the results (tumor regression) of the experiment depicted in FIG. 9. ^aTumor Regression=(1−(Td/T0))×100%.

[2] = system: HER2+ JIMT-1 breast cancer cell line; assay: HER2+ JIMT-1 breast cancer xenograft, Study 1-Part 1; format: in vivo; conditions: Compound (A) 60 mg/kg p.o. qd × 28, trastuzumab 10 mg/kg i.p. qw × 4
From the text: The HER2+ JIMT-1 breast cancer cell line was used for tumor xenograft inoculations and subsequent treatment. The JIMT-1 breast cancer cell line has been described in literature to be relatively resistant to HER2-targeted therapy (JIMT-1 cell line was established from pleural metastasis of a patient with breast cancer who was clinically resistant to trastuzumab (See Tanner et al. Mol Cancer Ther (2004) 3(12):1585-1592)), including to weekly administration of trastuzumab. To test if Compound (A) can improve the anti-tumor effects of HER2-targeted treatment, NOD/SCID mice were inoculated subcutaneously on the right flank with the single cell suspension of 95% viable tumor cells (5×10^6) in 100 μL DMEM Matrigel mixture (1:1 ratio) for tumor development. Treatment was started when mean tumor size reached 204 mm^3. Mice were then randomized into 5 groups and treatments were administered to the tumor-bearing mice accordingly to the study design in Table 2.
In FIG. 8, the top line (indicated with circles) is Vehicle A, and the third from the bottom line (indicated with circles) is trastuzumab (10 mg/kg) alone. […] Table 3 summarizes the results of the experiment depicted in FIG. 8. ^aTGI=Tumor growth inhibition, calculated as TGI=(1-(Td−T0)/(Cd−-C0))×100%, Td and Cd were the mean tumor volumes of the treated and control animals, and T0 and C0 were the mean tumor volumes of the treated and control animals at the start of the experiment; ^b. calculated vs. Vehicle Control by Dunnett T3 Test.

trastuzumab
TGI (%) on Day 14 [1]: 68.0%
tolerability [2]: well tolerated
tumor growth inhibition (TGI) on Day 29 compared to respective vehicle controls ([2]; combination vs. either vehicle control): 59%
TGI (%) vs. Vehicle B ([2]; Day 29, Vehicle B i.p.): 59.2%
